Measured values published in paper PMC10689320 (Dermatology and Therapy, 2023).

How the values were obtained:
[1] = assay type: in vivo, healthy Chinese subjects
[2] = Safety: adverse event monitoring; assay type: in vivo, healthy Chinese subjects
[3] = first-in-human study, healthy subjects; cited from earlier work
[4] = additional PK analyses, stated in Introduction, no reference given; cited from earlier work

## Deucravacitinib
[1]; range over single dose and multiple daily doses of 6 mg or 12 mg
  median time to maximal plasma concentration (tmax): 1.5 to 2.3 h
[1]; single or multiple doses, 6 mg vs 12 mg
  dose dependence of systemic exposure: increased approximately twofold with twofold dose increase
[2]; single or multiple doses of 6 mg or 12 mg once daily
  overall safety and tolerability: safe and well tolerated
[2]; whole study
  deaths: No deaths were reported
  treatment-related mild rash: 14 [35%] n [%]
[3]
  plasma half-life (t1/2): 8 to 15 h
  time to maximum plasma concentration (tmax): ≤ 1.0 h
[4]
  direct urinary elimination: ~ 13 % of dose
  elimination by metabolism by CYP2B6/CYP2D6: ~ 6 % of dose
  elimination by metabolism by carboxylesterase 2: ~ 15 % of dose
  elimination by metabolism by cytochrome P450 (CYP) 1A2: ~ 25 % of dose
  elimination by metabolism by uridine 5′-diphospho-glucuronosyltransferase 1A9: ~ 24 % of dose
  fecal excretion: ~ 26 % of dose
